Target: T1, human serum albumin (HSA) (Homo sapiens, UniProt P02768)
T1 construct: gene ALB; mature serum albumin, 585 residues, single polypeptide
Assay: intrinsic fluorescence quenching titration, excitation […] nm, Hill / double-log plot
Format: binding
Settings: no electromagnetic field, 50 mM potassium phosphate pH 7.4, 298 K, HSA 4.52 × 10^-6 M, header printed as Ka × 10^-6/M^-1

Chains of the proteins cited; added tags and fusions are not shown. Residues count along the entry.
UniProt P02768, 25-609: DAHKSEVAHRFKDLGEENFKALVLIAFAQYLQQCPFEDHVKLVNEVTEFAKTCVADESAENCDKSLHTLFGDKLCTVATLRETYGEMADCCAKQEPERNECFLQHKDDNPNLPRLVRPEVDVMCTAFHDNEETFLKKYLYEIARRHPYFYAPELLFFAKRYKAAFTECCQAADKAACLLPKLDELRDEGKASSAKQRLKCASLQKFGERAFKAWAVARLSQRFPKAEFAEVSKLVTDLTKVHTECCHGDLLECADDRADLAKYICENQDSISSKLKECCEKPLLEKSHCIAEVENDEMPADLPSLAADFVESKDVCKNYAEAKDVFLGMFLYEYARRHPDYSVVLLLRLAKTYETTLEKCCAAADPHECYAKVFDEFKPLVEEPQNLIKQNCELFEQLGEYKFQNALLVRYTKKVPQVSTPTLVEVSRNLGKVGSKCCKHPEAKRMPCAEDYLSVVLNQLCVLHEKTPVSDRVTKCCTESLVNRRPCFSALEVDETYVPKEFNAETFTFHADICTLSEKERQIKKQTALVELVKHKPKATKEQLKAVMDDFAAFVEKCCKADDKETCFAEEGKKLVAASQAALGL

Ka × 10^-6/M^-1 λex = 280 nm: 22.06 × 10^6 M^-1
SMILES: CCn1cc(C(=O)O)c(=O)c2cc(F)c(N3CCNCC3)cc21 [norfloxacin, 1-ethyl-6-fluoro-1,4-dihydro-4-oxo-7-(1-piperazinyl)-3-quinoline carboxylic acid]
